Molecular target: human activated kallikrein enzyme (Homo sapiens (Human), UniProt P03952)
Experiment: Plasma kallikrein inhibition assay with fluorogenic peptide substrate, 500 pM activated kallikrein format
Type: biochemical
Details: read-out: Primary Dose Response Assay: Average EC50, 300 uM Pro-Phe-Arg-7-amido-4-methylcoumarin substrate, 30 min preincubation, 10 min reaction at RT

The chains behind the UniProt entries cited, without tags or fusion partners. Residues count along the entry.
UniProt P03952, 391-638 limits assumed: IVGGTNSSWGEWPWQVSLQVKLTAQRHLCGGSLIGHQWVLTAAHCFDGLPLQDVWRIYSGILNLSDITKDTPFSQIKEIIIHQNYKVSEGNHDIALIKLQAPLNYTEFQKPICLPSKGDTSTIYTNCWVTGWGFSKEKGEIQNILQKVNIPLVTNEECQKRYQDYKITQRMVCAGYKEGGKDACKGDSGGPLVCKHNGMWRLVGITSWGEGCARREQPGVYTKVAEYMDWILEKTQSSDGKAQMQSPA
UniProt P03952, 20-390 partner limits assumed: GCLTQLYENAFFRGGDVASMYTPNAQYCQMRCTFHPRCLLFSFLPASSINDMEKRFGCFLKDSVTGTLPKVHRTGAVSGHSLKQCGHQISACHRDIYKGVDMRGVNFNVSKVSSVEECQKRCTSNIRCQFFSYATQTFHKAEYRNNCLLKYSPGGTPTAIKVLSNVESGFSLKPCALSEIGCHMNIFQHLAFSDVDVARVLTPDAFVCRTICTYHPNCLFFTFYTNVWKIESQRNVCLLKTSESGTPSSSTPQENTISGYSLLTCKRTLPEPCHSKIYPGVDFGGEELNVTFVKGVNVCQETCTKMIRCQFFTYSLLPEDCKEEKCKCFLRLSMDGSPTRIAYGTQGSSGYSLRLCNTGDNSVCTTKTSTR

O=C(NCc1cc2c(cn1)OCCO2)c1cn(Cc2cn3cc(C4CC4)ccc3n2)nn1
EC50: 100 to 2000 nM
